# Laboratory results from patent publication US9447106B2, “Substituted pyrazolo[1,5-a]pyrimidines as bruton's tyrosine kinase modulators” (Beigene, Ltd., priority 2013, dated 2016).
# Amino acid sequences for entries named in this document (tags omitted). A change or cut given only in a name is not applied to a line headed by its entry.
# UniProt Q06187: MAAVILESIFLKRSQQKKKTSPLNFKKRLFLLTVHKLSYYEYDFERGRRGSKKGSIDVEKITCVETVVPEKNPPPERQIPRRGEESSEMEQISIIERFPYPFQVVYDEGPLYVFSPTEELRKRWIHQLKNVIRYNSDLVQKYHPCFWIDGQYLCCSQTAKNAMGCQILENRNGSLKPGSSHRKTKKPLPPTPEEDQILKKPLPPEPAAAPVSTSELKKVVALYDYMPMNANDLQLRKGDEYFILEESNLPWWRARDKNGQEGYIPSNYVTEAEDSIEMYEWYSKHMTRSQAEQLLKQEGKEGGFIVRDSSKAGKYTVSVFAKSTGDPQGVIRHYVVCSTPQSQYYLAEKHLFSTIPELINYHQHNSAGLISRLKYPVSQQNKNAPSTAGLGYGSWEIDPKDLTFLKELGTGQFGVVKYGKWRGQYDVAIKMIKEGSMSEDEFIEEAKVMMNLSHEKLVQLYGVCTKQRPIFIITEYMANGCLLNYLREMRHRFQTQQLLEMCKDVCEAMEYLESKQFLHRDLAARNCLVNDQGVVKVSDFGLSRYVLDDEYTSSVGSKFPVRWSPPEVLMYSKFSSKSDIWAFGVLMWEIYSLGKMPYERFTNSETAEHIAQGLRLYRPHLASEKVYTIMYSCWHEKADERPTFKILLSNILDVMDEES
# What was measured:
# [1] = target: phosphorylated Btk at Tyr223 in Ramos cells (Homo sapiens (Human), UniProt Q06187); experiment: Btk pY223 cellular assay (HTRF) in Ramos cells; type: cell-based; conditions: 1 hour compound incubation, pervanadate or Na3VO4 stimulation
# Recombinant Btk = Recombinant Btk (Homo sapiens (Human), UniProt Q06187); experiment: Btk kinase assay (TR-FRET); conditions: IC50 (nM) Btk, 1 hour pre-incubation, ATP at Km
SMILES,IC50 [1] [nM],IC50 (Recombinant Btk) [nM]
"C=CC(=O)Nc1ccccc1C1CCNc2c(C(N)=O)c(-c3ccc(C)c(OC)c3)nn21 (single isomer, unassigned) [Compound 133a, (R or S) 7-(2-acrylamidophenyl)-2-(3-methoxy-4-methylphenyl)-4,5,6,7-tetrahydropyrazolo[1,5-a]pyrimidine-3-carboxamide]",2.9,
"N#C/C=C/CN1CCc2[nH]c3c(C(N)=O)c(-c4ccc(Oc5ccccc5)cc4)nn3c2C1 [Compound 59, (E)-7-(3-Cyanoallyl)-2-(4-phenoxyphenyl)-5,6,7,8-tetrahydro-4H-pyrazolo[5′,1′:2,3]imidazo[4,5-c]pyridine-3-carboxamide]",,43
"C=CC(=O)Nc1ccccc1C1CCNc2c(C(N)=O)c(-c3ccc(C)c(OC)c3)nn21 (stereo not drawn) [Compound 133, 7-(2-acrylamidophenyl)-2-(3-methoxy-4-methylphenyl)-4,5,6,7-tetrahydropyrazolo[1,5-a]pyrimidine-3-carboxamide]",1.8,
